In the library only some 2.3% were active in any assay of this set; here they are far more common.
Nrf2 block: blocks Nrf2 signaling. A549 ARE-Fluc reporter, luciferase luminescence, 18-24 h. Potency, µM (top dose mostly 46 µM), most hits filed as inhibitors. hit rate 2.1% among 360,000; also: nearly all actives have a fitted effect of over 60% in size
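Concentration-response testing used A549 ARE_Fluc cells at 5000 cells/well. Following an 18-24 h compound incubation, viability was read by fluorescence (Ex 405/Em 525) and luciferase output by luminescence.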
A549 viability: counter-screen for Nrf2 inhibitors: cytotoxicity in A549 cells; Potency, µM (highest dose often 46 µM), most hits filed as inhibitors; A549 ARE-Fluc cells, CellTiter-Fluor viability, 18-24 h; hit rate 0.16% among 390,000
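A549 ARE-Fluc cells in 5% FBS OPTI-MEM, 5000 cells/well, rested 2 h then exposed to compounds in concentration-response for 18-24 h at 37 °C. Viability by CellTiter-Fluor fluorescence (Ex 405/Em 525) after 30 min; luciferase luminescence (BugLite, 15 min, RT) read afterwards.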
miR-21 reporter: raises the signal of a miR-21 reporter; AID 2288; 340,000 tested, under 10 active; Potency, µM (doses to about 38.3 µM); HeLa miR-21 FLuc reporter, luciferase, 48 h; active = well fitted rising curve with a large enough effect; inconclusive = small, poorly fitted or top-dose-only effect; inactive = no such curve, though single readings can be large or run the other way;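 note: miR-21 action dims this reporter so a rising signal means less miR-21 action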
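HeLa miR-21-FLuc reporter line, endogenous miR-21; 2000 cells/well in DMEM/10% FBS; compound titration up to ~40uM final, 48 h, 37 degree Celsius; luciferase detection reagent, 15 min lysis, CCD luminescence.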
Mito fusion act: mitochondrial division inhibition or fusion activation; S. cerevisiae fusion-defective mutant growth rescue, CellTiterGlo 48 h; hit rate 0.23% among 320,000; AID 485298; Potency, µM (series often up to 46.1 µM), actives largely listed as activators; also: nearly all actives have a fitted effect of over 45% in size
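Yeast fusion mutant, YPEG (non-fermentable carbon), compound, 48 h at 37C non-permissive; CellTiterGlo added, 10 min RT, luminescence read. Rescued growth = division inhibition.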
Nrf2 activator: activators of Nrf2 (ARE) signaling. AREc32 ARE-luciferase reporter (MCF7-derived line), luminescence, 24 h. Potency, µM (titrated, usually from 46.1 µM), most hits filed as activators. hit rate 0.31% among 410,000. AID 624171; also: nearly all actives have a fitted effect of over 65% in size
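Steps: seed AREc32_Fluc cells (1000/well, 5% FBS OPTI-MEM); incubate overnight at 37 deg C; add 23 nL compound; incubate 24 hr; add Steady-Glo; hold 30 min RT; read luminescence.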
A number is an active result; n = inactive; u = inconclusive; x = not tested or not shown; ! = not active in a repeat; [ ] = remark or other dose. Unless noted, calls follow the shape of the dose curve; as a rule, active = well fitted curve in the direction sought with a large enough effect; inconclusive = small, poorly fitted or top-dose-only effect, or another doubt; inactive = no such curve, though single readings can be large; an effect the other way counts as inactive or inconclusive.

SMILES	Nrf2 block	A549 viability	miR-21 reporter	Mito fusion act	Nrf2 activator
CCCc1cc(=O)oc2c(C)c3occ(C)c3cc12	n	n	n	10µM	n
O=C(Cn1c(SCC(=O)Nc2ccc(F)cc2)nc2ccccc21)NCc1ccccc1Cl	x	n	n	x	n
O=S1(=O)C=C(SCc2cccc(Cl)c2)Nc2ccccc21	21µM	n	n	n	n
CCC(C)Nc1nc(-c2cccc(OC)c2O)nc2ccccc12 (stereo not drawn)	21µM	u	n	n	n
CC(C)Cc1cc(C(=O)N2CCCC(C(=O)c3cc(F)ccc3F)C2)no1 (stereo not drawn)	n	n	n	11µM	n
O=S(=O)(c1cccnc1)N1CCN(c2nc(-c3cccs3)nc3ccccc23)CC1	u	n	x	x	x
Cc1ccc(N(C)S(=O)(=O)c2ccc3c(c2)CCC(=O)N3)cc1C	u	n	x	x	x
COC(=O)c1c(-c2cccs2)csc1NC(=O)COc1ccccc1	n	u	n	x	n
COC1=C(OC)C(=O)C(CCCCCCCCCCO)=C(C)C1=O	x	x	n	n	x
CC1=C(C)C(=O)C(CCCCC#CCCCC#CCO)=C(C)C1=O	n	n	n	18µM!	n
COc1cc(OC)cc(-c2nnc3n2N=C(c2ccccc2OC)CS3)c1	u	n	x	x	x
Cc1ccc(C(=O)Nc2nnc(S(=O)(=O)N3c4ccccc4CC3C)s2)cc1 (stereo not drawn)	n	n	n	x	n
COc1ccc(-n2c(=S)[nH]c3cc(C(=O)Nc4ccc(C)c(F)c4)ccc3c2=O)c(OC)c1	23µM	n	u	n	n
COc1ccc(-n2c(=S)[nH]c3cc(C(=O)NC4CCCCC4)ccc3c2=O)c(OC)c1	15µM	n	n	n	n
CCOc1ccc(NC(=O)c2ccc3c(=O)n(-c4ccc(OC)cc4OC)c(=S)[nH]c3c2)cc1	x	x	n	n	x
COc1ccc(NC(=O)c2ccc3c(=O)n(-c4ccc(OC)cc4OC)c(=S)[nH]c3c2)c(OC)c1	26µM	n	n	n	n
Cc1ccc(NC(=O)CN2C(=O)CCn3nc(-c4cccn4C)cc32)cc1	x	n	n	x	n
Cc1cc2oc(=O)c(CC(=O)O)c(C)c2c2occ(-c3ccc(F)cc3)c12	u	n	n	x	n
Cc1cc(C)cc(NC(=O)CSc2nnc(-c3cc4occc4n3C)n2-c2ccccc2C)c1	n	n	n	x	n
CC(C)NC(=O)c1ccc(-n2c(-c3ccccc3)cc3c2CCCCC3)cc1	u	n	n	x	13µM
CN(C)CCNC(=O)c1ccc(-n2c(-c3ccccc3)cc3c2CCCCC3)cc1	u	n	n	x	u
COCCCNC(=O)c1ccc(-n2c(-c3ccccc3)cc3c2CCCCC3)cc1	u	n	n	x	u
CC1CCc2c(cc(-c3ccccc3)n2-c2ccc(C(=O)NC(C)C)cc2)C1 (stereo not drawn)	u	u	n	x	2.8µM
CCOCCCNC(=O)c1ccc(-n2c(-c3ccccc3)cc3c2CCCC3)cc1	u	n	u	x	11µM
CCn1c2c(c(=O)n3ncc(C(=O)Nc4cccc(Cl)c4C)c13)CN(Cc1ccc(OC)cc1)CC2	x	n	n	x	n
SMILES	Nrf2 block	A549 viability	miR-21 reporter	Mito fusion act	Nrf2 activator
CN(C)S(=O)(=O)c1ccc(S(=O)(=O)N2CCCC(C(=O)NC3CC3)C2)cc1 (stereo not drawn)	21µM	n	n	n	n
CCOC(=O)C1CCCN(S(=O)(=O)c2ccc(S(=O)(=O)N(CC)CC)cc2)C1 (stereo not drawn)	u	n	n	n	n
CCN(CC)S(=O)(=O)c1ccc(S(=O)(=O)N2CCCC(C(=O)NC3CC3)C2)cc1 (stereo not drawn)	5.8µM	n	n	n	n
O=C(NCCCc1cnc[nH]1)NCCCN(Cc1ccc(Cl)cc1)c1ccc(Br)cn1	u	n	x	x	x
C=CCN1C(c2cccc(C(F)(F)F)c2)=CS/C1=C(\C#N)c1nnc(N2CCOCC2)n1-c1ccccc1	x	x	x	x	n
C=CCN1C(c2ccc(Br)cc2)=CS/C1=C(\C#N)c1nnc(N2CCOCC2)n1-c1ccccc1	26µM	u	x	x	n
COc1ccc(NS(=O)(=O)c2cccc(-c3nnc(-c4ccccc4)o3)c2)cc1	n	n	n	13µM	n
O=S(=O)(NC1CCCC1)c1cccc(-c2nnc(-c3ccccc3)o2)c1	u	n	n	n	n
COc1cccc2cc(-c3nc(-c4ccccc4)c(C)s3)c(=O)oc12	n	n	x	x	x
COc1ccccc1C(=O)NC1(C(F)(F)F)NC(=O)N(CCc2ccccc2)C1=O (stereo not drawn)	n	n	n	x	n
CC(C)Oc1ccc(C(=O)NC2(C(F)(F)F)NC(=O)N(CCCc3ccccc3)C2=O)cc1 (stereo not drawn)	n	n	n	20µM	n
CCc1ccc(NC(=O)Cn2c(=O)c(-c3ccccc3NC(C)=O)nc3ccccc32)cc1	n	n	n	x	n
Nc1cc(-c2ccc(Br)cc2)nn1S(=O)(=O)c1ccccc1	n	n	n	n	n
COc1ccc(-c2cc(N)n(S(=O)(=O)c3ccc(F)cc3)n2)cc1OC	16µM	n	n	n	n
Nc1cc(-c2ccccc2)nn1S(=O)(=O)c1ccc(F)cc1	18µM	n	n	n	n
COc1cc(NC(=O)Cn2cnc3sc(C)c(S(=O)(=O)N4CCC(C)CC4)c3c2=O)cc(OC)c1OC	n[9.27 µM]	n	n	x	n
Brc1ccc(-c2nnc(-c3cccnc3)c3conc23)cc1	n	n	x	x	7.1µM
CC(=O)NC(Cc1c[nH]c2ccccc12)C(=O)OCC(=O)Nc1ccc2c(c1)OCO2 (stereo not drawn)	x	n	n	n	n
Cc1ccc(C(C(=O)Nc2ccc3c(c2)OCO3)N(C)C(=O)Cc2c[nH]c3ccccc23)cc1 (stereo not drawn)	23µM	u	n	n	n
Oc1ccc(/C=N\Nc2nncc(-c3ccccc3)n2)cc1	u	n	n	n	7.1µM
Cc1cccc(C)c1OCCn1c(C2CC(=O)N(c3cccc(Cl)c3)C2)nc2ccccc21 (stereo not drawn)	21µM	u	u	x	n
Cc1cccc(C)c1OCCCCn1c(C2CC(=O)N(c3ccc(F)cc3)C2)nc2ccccc21 (stereo not drawn)	21µM	u	u	x	n
C#CCSc1nc(-c2ccccc2)cc(C(F)(F)F)c1C#N	n	n	n	n	8.9µM
N#Cc1c(C(F)(F)F)cc(-c2cccs2)nc1SCc1ccc(F)cc1	n	n	n	x	n
Cc1ccc(-c2cc(C(F)(F)F)c(C#N)c(SCCC#N)n2)o1	n	n	n	n	7.1µM
N#Cc1c(C(F)(F)F)cc(-c2cccs2)nc1SCc1cccnc1	13µM	u	n	n	n
CC(=O)N1CCc2cc(CNS(=O)(=O)c3cccs3)ccc21	x	n	n	x	n
O=S(=O)(c1ccc(F)cc1F)N1CCN(c2nc(-c3cccs3)nc3ccccc23)CC1	n	n	x	x	x
NCCCN(Cc1ccc(Cl)cc1)c1ccc(Br)cn1	u	n	x	x	x
